Where a name gives a salt, the structure may show the parent alone.
Assays:
Assay type in all cases: binding
Endothelin ETA = Endothelin ETA (Homo sapiens, UniProt P25101); experiment: LeadProfilingScreen: Endothelin ETA
Opiate δ1 (OP1, DOP) = Opiate δ1 (OP1, DOP) (Homo sapiens, UniProt P41143); experiment: LeadProfilingScreen: Opiate δ1 (OP1, DOP)
Adrenergic α1B = Adrenergic α1B (Homo sapiens, UniProt P35368); experiment: LeadProfilingScreen: Adrenergic α1B

Q: Which inhibition at 10 µM (Endothelin ETA) does the source give for `O=P(O)(O)CCN1CCC(Nc2cc(N3CCOCC3)nc(NCc3cn(CCCO)nn3)n2)CC1` [CN016, {2-[4-(2-{[1-(3-Hydroxy-propyl)-1H-[1,2,3]triazol-4-ylmethyl]-amino}-6-morpholin-4-yl-pyrimidin-4-ylamino)-piperidin-1-yl]-ethyl}-phosphonic Acid Hydrobromide Salt] here?
A: 15%

Q: What about the inhibition at 10 µM (Opiate δ1 (OP1, DOP)) of the same molecule?
A: 6%

Q: And the inhibition at 10 µM (Adrenergic α1B)?
A: 14%
